{"sequences": {"note": "The chains behind the UniProt entries cited, without tags or fusion partners. Residues count along the entry.", "UniProt P06276, 29-602 limits assumed": "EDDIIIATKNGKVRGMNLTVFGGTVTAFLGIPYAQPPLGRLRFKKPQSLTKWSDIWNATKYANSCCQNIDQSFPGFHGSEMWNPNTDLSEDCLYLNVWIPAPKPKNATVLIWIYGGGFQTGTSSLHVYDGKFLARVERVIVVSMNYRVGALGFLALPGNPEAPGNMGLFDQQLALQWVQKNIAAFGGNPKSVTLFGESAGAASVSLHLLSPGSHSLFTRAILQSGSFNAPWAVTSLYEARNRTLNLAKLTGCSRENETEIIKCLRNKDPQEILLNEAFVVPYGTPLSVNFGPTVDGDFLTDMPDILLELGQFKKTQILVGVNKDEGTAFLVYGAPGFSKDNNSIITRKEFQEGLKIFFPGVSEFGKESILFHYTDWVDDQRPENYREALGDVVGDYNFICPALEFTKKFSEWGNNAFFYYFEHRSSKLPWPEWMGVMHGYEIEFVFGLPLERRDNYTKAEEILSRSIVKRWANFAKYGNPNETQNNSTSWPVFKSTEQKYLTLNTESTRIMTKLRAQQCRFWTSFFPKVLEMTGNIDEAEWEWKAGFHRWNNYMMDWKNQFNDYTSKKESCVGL"}, "source": "BindingDB's records for 35526478", "data": [{"target": "Cholinesterase (Homo sapiens, UniProt P06276)", "experiment": "Reactivation of OP compound induced inhibition of BChE in human plasma using ATCh as substrate by Ellman's method", "units": {"Ki": "µM"}, "values": [{"compound": "NC(=O)c1cc[n+](CCC[n+]2ccc(C=NO)c(F)c2)cc1", "Ki": 484}, {"compound": "NC(=O)c1cc[n+](CCC[n+]2cc(F)c(C=NO)c(F)c2)cc1", "Ki": 279}, {"compound": "NC(=O)c1cc[n+](CCCC[n+]2cc(F)c(C=NO)c(F)c2)cc1", "Ki": 284}, {"compound": "NC(=O)c1cc[n+](CC=CC[n+]2cc(F)c(C=NO)c(F)c2)cc1", "Ki": 243}, {"compound": "NC(=O)c1cc[n+](CC=CC[n+]2ccc(C=NO)c(F)c2)cc1", "Ki": 110}]}]}
